According to article PMC5988692, “AZ304, a novel dual BRAF inhibitor, exerts anti-tumour effects in colorectal cancer independently of BRAF genetic status” (British Journal of Cancer, 2018):

Assays:
RKO xenografts = assay: Xenograft study (tumour growth, immunohistochemistry); format: in vivo, athymic BALB/c nude mice
Method: (§1) All in vivo experiments were performed in accordance with Institutional Review Board of China Medical University guidelines. Female 4–6 weeks old athymic BALB/c nude mice were purchased from Shanghai SLAC Laboratory Animal Centre (Shanghai, China). RKO/Caco-2 cells (1 × 10^7) in 200 μl PBS were injected subcutaneously into the right scapular region of mice. […] Tumours were measured with a caliper every 2 days, so did body weights. Tumour volume was calculated using the formula V = 1/2 (width^2 × length). Mice were terminated by CO2 inhalation when the tumour diameters reached 1.5 cm, according to the protocol filed with the Guidance of Institutional Animal Care and Use Committee of China Medical University.
(§2) Tumours were formalin-fixed, paraffin-embedded and prepared as described in our previous study for staining with haematoxylin and eosin.[19] The immunohistochemical antibodies Ki67, p-ERK, p-EGFR and p-AKT have been described already. The staining was evaluated by scanning the entire tissue specimen under low magnification (×10) and confirmed under high magnification (×20 and ×40). The protein expression was visualised and classified based on the percentage of positive cells and the intensity of staining. From each section, five visual fields were randomly selected. The degree of protein expression was based on the percentage of positive cells and the intensity of staining. Staining intensity was scored as 0 (no staining), 1 (low staining), 2 (intermediate staining), and 3 (high staining). For the staining area, ≤5%, 5–25%, 26–50, 51–75% >75% were recorded as 0, 1, 2, 3 and 4 points, respectively. Histological score = staining intensity × staining area. A score 0 was classified as negative (−), 1–4 points as weakly positive (+), 6–12 points as a strong positive (++). Final scores were assigned by two independent pathologists.
(§3) In vivo subcutaneous tumour growth curves were shown for RKO (c) and Caco-2 (d) cells in vivo. Student’s t-tests were used for statistical analyses. Data are plotted as mean ± SD. P values were labelled in the figures. e Tumour tissue from RKO and Caco-2 xenografts treated for 10 days as indicated was evaluated by IHC for Ki67, p-ERK, p-AKT and p-EGFR. Tumours were harvested 4 h after dosing on day 10

Caco-2 xenografts = assay: as above; format: in vivo, athymic BALB/c nude mice
Method: as §1, §2, §3

[1] = RKO xenograft tumours, day 10, 4 h after dosing, score = staining intensity × staining area
[2] = Caco-2 xenograft tumours, day 10, 4 h after dosing, score = staining intensity × staining area

## Cetuximab: anti-EGFR monoclonal antibody [reference compound]
RKO xenografts; [1]
  Ki67 histological score: 9 ±2.12
  p-AKT histological score: 5.2 ±1.10
  p-EGFR histological score: 4.4 ±1.67
  p-ERK histological score: 6.6 ±1.95
RKO xenografts; RKO xenograft, AZ304 10 mg/kg oral twice daily, Cetuximab 40 mg/kg i.p. twice per week, 10 days, vs vehicle
  tumour growth: reduced tumour growth
Caco-2 xenografts; [2]
  Ki67 histological score: 6.6 ±1.95
  p-AKT histological score: 3.2 ±0.84
  p-EGFR histological score: 3.4 ±0.89
  p-ERK histological score: 3.4 ±0.89
Caco-2 xenografts; Caco-2 xenograft, AZ304 10 mg/kg oral twice daily, Cetuximab 40 mg/kg i.p. twice per week, 10 days, vs vehicle
  tumour growth: reduced tumour growth
